Laboratory results as given in article PMC11921695 (BMC Cancer, 2025).

Format: in vivo
Settings: selumetinib starting dose 75 mg bd; for Antiretroviral drug Concentration: trough plasma, individual patients

Maraviroc
% Change in antiretroviral drug concentration (Cycle 1 Day 15 vs Cycle 1 Day 1): 297.8% | % Change in antiretroviral drug concentration (Cycle 5 Day 1 vs Cycle 1 Day 1): 241.3% | Antiretroviral drug Concentration (Cycle 1 Day 1 (pre-selumetinib)): 46 ng/mL | Antiretroviral drug Concentration (Cycle 1 Day 15): 183 ng/mL | Antiretroviral drug Concentration (Cycle 5 Day 1): 157 ng/mL

Like-named read-outs stand apart in the source and are kept apart here.
